Experimental data taken from patent US8586634B2, “Therapeutic compounds” (University of Florida Research Foundation, Inc., priority 2007, dated 2013).

By UniProt entry, the sequences of proteins in these tests, tags left out. Residues count along the entry.
UniProt P28335, 33-458 limits assumed: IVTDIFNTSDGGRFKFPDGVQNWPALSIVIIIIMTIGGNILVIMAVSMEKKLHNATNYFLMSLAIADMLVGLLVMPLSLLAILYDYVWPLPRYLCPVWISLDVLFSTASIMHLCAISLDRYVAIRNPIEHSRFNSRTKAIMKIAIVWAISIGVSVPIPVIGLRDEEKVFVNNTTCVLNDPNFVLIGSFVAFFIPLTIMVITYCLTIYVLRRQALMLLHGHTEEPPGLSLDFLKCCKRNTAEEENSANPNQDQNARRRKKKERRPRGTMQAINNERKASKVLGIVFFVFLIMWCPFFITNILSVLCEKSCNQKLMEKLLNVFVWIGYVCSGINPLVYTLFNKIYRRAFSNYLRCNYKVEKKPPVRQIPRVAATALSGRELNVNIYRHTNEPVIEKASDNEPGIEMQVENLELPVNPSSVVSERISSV
UniProt P28223, whole entry: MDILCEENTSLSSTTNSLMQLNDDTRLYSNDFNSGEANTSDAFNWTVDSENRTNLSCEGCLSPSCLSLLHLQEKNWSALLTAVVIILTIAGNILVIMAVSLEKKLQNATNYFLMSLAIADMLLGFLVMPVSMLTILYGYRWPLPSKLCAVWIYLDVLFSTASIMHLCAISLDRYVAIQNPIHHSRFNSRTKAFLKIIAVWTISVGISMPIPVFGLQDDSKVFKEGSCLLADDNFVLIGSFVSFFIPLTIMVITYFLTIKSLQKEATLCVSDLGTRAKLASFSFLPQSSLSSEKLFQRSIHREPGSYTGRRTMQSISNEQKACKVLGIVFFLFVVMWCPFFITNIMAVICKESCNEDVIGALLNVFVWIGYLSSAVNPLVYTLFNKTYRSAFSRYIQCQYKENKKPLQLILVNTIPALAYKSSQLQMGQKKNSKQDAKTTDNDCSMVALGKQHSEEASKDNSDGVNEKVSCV
UniProt P41595, whole entry: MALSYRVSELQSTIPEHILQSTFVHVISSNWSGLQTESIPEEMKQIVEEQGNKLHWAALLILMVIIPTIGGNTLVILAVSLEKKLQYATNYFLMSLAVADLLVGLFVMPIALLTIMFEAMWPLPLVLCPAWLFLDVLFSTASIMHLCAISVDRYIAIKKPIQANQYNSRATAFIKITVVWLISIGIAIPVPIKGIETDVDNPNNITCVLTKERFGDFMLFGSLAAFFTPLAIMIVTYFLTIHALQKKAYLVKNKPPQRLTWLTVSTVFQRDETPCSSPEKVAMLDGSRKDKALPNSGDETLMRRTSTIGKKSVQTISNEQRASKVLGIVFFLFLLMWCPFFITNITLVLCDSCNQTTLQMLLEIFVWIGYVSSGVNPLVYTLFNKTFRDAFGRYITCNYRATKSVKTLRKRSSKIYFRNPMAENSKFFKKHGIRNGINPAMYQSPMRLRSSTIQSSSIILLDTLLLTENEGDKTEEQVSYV
UniProt P35367, whole entry: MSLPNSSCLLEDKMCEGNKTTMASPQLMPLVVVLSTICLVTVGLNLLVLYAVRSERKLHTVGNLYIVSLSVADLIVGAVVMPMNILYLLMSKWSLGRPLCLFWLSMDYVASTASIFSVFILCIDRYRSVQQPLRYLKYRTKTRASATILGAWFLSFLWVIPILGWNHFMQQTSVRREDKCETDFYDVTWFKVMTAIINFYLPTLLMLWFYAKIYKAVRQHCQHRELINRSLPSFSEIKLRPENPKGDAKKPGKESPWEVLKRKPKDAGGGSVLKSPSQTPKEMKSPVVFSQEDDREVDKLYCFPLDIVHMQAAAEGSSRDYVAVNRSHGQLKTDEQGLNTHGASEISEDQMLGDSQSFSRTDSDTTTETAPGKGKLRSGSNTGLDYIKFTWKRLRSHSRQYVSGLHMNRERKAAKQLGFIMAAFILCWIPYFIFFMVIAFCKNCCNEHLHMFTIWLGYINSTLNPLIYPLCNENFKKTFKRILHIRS

Columns and labels:
5-HT2C receptors = 5-HT2C receptors (Homo sapiens, UniProt P28335); assay: Radioreceptor competition binding, [3H]-mesulergine, membranes of transfected CHO-K1 cells; settings: read-out: Ki @ 5HT2c ± SEM; nM; Example 12 table
5-HT2A receptors = 5-HT2A receptors (Homo sapiens, UniProt P28223); assay: Radioreceptor competition binding, [3H]-ketanserin, membranes of transfected CHO-K1 cells; settings: Table 5, 5HT2A
5-HT2B receptors = 5-HT2B receptors (Homo sapiens, UniProt P41595); assay: Radioreceptor competition binding, [3H]-mesulergine, membranes of transfected CHO-K1 cells; settings: read-out: 5HT2B Ki ± SEM; Table 5
H1 = H1 (Homo sapiens, UniProt P35367); settings: cited from earlier work

Row | SMILES | Ki (5-HT2C receptors) [nM] | other results
1 | CN(C)[C@@H]1Cc2ccccc2[C@@H](c2ccccc2Cl)C1 (relative stereo) | 340 | –
2 | CN(C)[C@@H]1Cc2ccccc2[C@@H](c2ccc(F)cc2)C1 (relative stereo) | 300 | –
3 | CN(C)[C@@H]1Cc2ccccc2[C@@H](c2ccc(Cl)cc2)C1 (relative stereo) | 200 | –
4 | Cc1ccc([C@H]2C[C@H](N(C)C)Cc3ccccc32)cc1 (relative stereo) | 170 | –
5 | Cc1ccccc1[C@H]1C[C@H](N(C)C)Cc2ccccc21 (relative stereo) | 450 | –
6 | CN(C)[C@@H]1Cc2ccccc2[C@H](c2ccccc2)C1 | – | nH (5-HT2A receptors): 1.0; Ki (5-HT2B receptors): > 5000 nM

Now from value to compound, other results behind:

Row | Ki (5-HT2C receptors) [nM] | SMILES | other results
7 | 5000 | N[C@@H]1Cc2cc(O)c(O)cc2[C@@H](c2ccccc2)C1 (relative stereo) | –
8 | 5000 | N[C@@H]1Cc2cc(O)c(O)cc2[C@H](c2ccccc2)C1 (relative stereo) | –
9 | 20 | CN(C)[C@@H]1Cc2cc(Cl)c(O)cc2[C@@H](c2ccccc2)C1 (relative stereo) | –
10 | 300 | CN(C)[C@@H]1Cc2cc(O)c(O)cc2[C@@H](c2ccccc2)C1 (relative stereo) | –
11 | 250 | CN(C)[C@@H]1Cc2cc(Cl)c(O)cc2[C@H](c2ccccc2)C1 (relative stereo) | –
12 | 1800 | CN(C)[C@@H]1CCc2ccccc2[C@@H](c2ccccc2)C1 (relative stereo) | –
13 | 1200 | CN(C)[C@@H]1CCc2ccccc2[C@H](c2ccccc2)C1 (relative stereo) | H1-linked PLC signaling (H1): activate
14 | 5000 | CN(C)[C@@H]1Cc2cc(O)c(O)cc2[C@H](c2ccccc2)C1 (relative stereo) | –
